Binding of CDR-mutated scFvs to a peptide of the spike HR2 region

From the AlphaSeq antibody data of Engelhart et al. 2022 (doi:10.1038/s41597-022-01779-4), copy in the FLAb collection.

Antigen: PDVDLGDISGINAS, a 14-residue peptide of the SARS-CoV-2 spike HR2 region.

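The starting antibody came from a phage panning campaign against this peptide. Variants in AAYL49 differ from the parent at up to three CDR positions; double and triple changes were sampled at random. The assay is AlphaSeq: two haploid yeast populations carry antibody and antigen on their surface. Binding brings cells together so that they mate, and sequencing counts the barcode pairs among the diploids. The ratio of observed to expected reads was calibrated, replicate by replicate, on BCL2-family standards whose Kd was known from biolayer interferometry. Mating was done three times.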

The variants keep the light chain, the linker and the frameworks of Ab-14 (scFv order VH, a (GGGGS)3 linker, VL).
VH: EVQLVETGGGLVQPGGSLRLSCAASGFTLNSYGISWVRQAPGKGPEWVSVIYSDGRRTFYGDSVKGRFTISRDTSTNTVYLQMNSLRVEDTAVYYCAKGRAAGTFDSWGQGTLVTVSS
VL: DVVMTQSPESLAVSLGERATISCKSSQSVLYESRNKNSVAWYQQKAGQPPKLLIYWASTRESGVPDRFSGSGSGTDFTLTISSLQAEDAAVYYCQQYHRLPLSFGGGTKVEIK

Substitutions are numbered in sequence along the VH above, starting at 1 (not Kabat).
Scale: log10 of Kd in nM, estimated from mating counts; low values are strong binders.
"n.d." marks a missing value. The strain was present, yet no cells mated with the target were sequenced in that replicate, which points to weak or no binding.
In this assay the parent's reference entry averaged 0.65; its copy inside this library read 4.11 (one replicate of three).

| # | changes | log10 Kd, replicates |
|---|---|---|
| 1 | S63D+A101P+A102F | n.d. / 2.95 / n.d. |
| 2 | I51R+K65P+G99W | 3.60 / n.d. / n.d. |
| 3 | N30T+R57H+F59Q | n.d. / n.d. / n.d. |
| 4 | A101G+F105K | 0.45 / 0.76 / 0.72 |
| 5 | G33Y+S53G | 5.25 / n.d. / n.d. |
| 6 | L29K+R57L+A101W | 4.14 / n.d. / n.d. |
| 7 | N30G+D62M | 3.45 / n.d. / n.d. |
| 8 | S31L+V64F | 1.54 / 1.59 / 1.68 |
| 9 | I51D+V64W+A101S | 4.21 / n.d. / n.d. |
| 10 | I51V+Y52S+G103T | n.d. / n.d. / n.d. |
| 11 | N30W+Y60L+G61T | n.d. / n.d. / n.d. |
| 12 | G33H+D54E+Y60E | n.d. / n.d. / n.d. |
| 13 | S31R+I34S+V50H | n.d. / n.d. / 3.31 |
| 14 | D54W+G99Y+F105L | n.d. / n.d. / n.d. |
| 15 | G99M+R100H+A102E | 0.43 / 0.83 / 0.68 |
| 16 | S31P+I51N+R100V | n.d. / n.d. / n.d. |
| 17 | S31C+A102V | n.d. / n.d. / 3.38 |
| 18 | Y60Q+D62S+R100L | 5.27 / n.d. / n.d. |
| 19 | I51Y+G55S+Y60H | n.d. / 3.42 / n.d. |
| 20 | L29D+I51G+S53W | 3.42 / n.d. / n.d. |
| 21 | G55W+Y60G+A101L | n.d. / n.d. / n.d. |
| 22 | I34G+R56D+F59N | n.d. / n.d. / n.d. |

Second part, the sequence after the result:

| # | log10 Kd, replicates | changes |
|---|---|---|
| 23 | n.d. / n.d. / n.d. | G26V+L29F+R56L |
| 24 | n.d. / 3.51 / n.d. | S31Y+G99C+F105T |
| 25 | n.d. / 5.31 / 4.46 | N30G+Y60P+R100G |
| 26 | n.d. / n.d. / n.d. | I34Q+V50R+F59Y |
| 27 | 3.24 / 3.00 / 2.64 | T28M+T58Y |
| 28 | n.d. / n.d. / n.d. | Y60L+S63Y+R100I |
| 29 | n.d. / n.d. / n.d. | D54K+V64M+A102V |
| 30 | 1.42 / 1.55 / 1.65 | S31A+D62K+D106C |
| 31 | 3.43 / 2.87 / n.d. | Y32I+K65R+F105S |
| 32 | n.d. / n.d. / n.d. | S35E+I51K+R57Q |
| 33 | n.d. / n.d. / n.d. | G33H+S53G+G99R |
| 34 | 4.78 / n.d. / n.d. | G26F+Y60H+F105D |
| 35 | 2.30 / 1.17 / 1.59 | G26E+I51L+S63D |
| 36 | 2.68 / n.d. / n.d. | T28V+S35V |
| 37 | 2.52 / 2.42 / 2.61 | T28F+S53F+S107L |
| 38 | 2.86 / 3.34 / 2.48 | N30M+R56W+A101C |
| 39 | n.d. / n.d. / n.d. | S53E+F59C+S63N |
| 40 | n.d. / n.d. / n.d. | L29A+F59S+G99H |
| 41 | n.d. / n.d. / n.d. | D54H+G99M+R100W |
| 42 | n.d. / 2.99 / 4.59 | G26C+I34N+A102K |
| 43 | n.d. / n.d. / 4.10 | T28E+S63D+A102K |
| 44 | n.d. / n.d. / 4.37 | I34A+R100N+A101R |

Extract of 7 entries:

| changes | log10 Kd, replicates |
|---|---|
| S31C+A102V | n.d. / n.d. / 3.38 |
| N30M+R56W+A101C | 2.86 / 3.34 / 2.48 |
| I34A+R100N+A101R | n.d. / n.d. / 4.37 |
| S31Y+G99C+F105T | n.d. / 3.51 / n.d. |
| S53E+F59C+S63N | n.d. / n.d. / n.d. |
| L29K+R57L+A101W | 4.14 / n.d. / n.d. |
| S35E+I51K+R57Q | n.d. / n.d. / n.d. |

Three control strains display no target. For library AAYL49, 15% of the pairings with them gave a signal, with a median of 4.06 and one signal in twenty below 2.83, so weak values seen in few replicates may be background.